Data published in PMC9770967, “Native holdup (nHU) to measure binding affinities from cell extracts” (Science Advances, 2022).

How the values were obtained:
[1] = target: recombinant full-length SNX27 (1-541) fused to an N-terminal biotinylated-MBP and C-terminal His6 tag (UniProt Q96L92); test: other; printed as pKapp 4.93
[2] = target: biotinylated PDZ-binding motif (PBM) peptide of diacylglycerol kinase zeta (DGKZ); test: native holdup (nHU) with Western blot; titration; biotinylated DGKZ PBM peptide on streptavidin resin as bait, mixed with biotin-saturated control resin at constant resin/analyte ratio; total Jurkat extract (2 mg/ml) as analyte; 4°C, 2 hours; prey depletion in the supernatant read by Western blot; apparent constants; three replicates

Row | Substance | Kd [1] | pKapp (negative logarithm of the apparent dissociation constant) [2]
1 | VPS35 | 11.7 µM | 
2 | full-length SNX27 endogenously present in Jurkat extract (from UniProt Q96L92 1-541) (natural protein) |  | 6.4 pKapp
